Biological target: Adenosine receptor A3 (Homo sapiens, UniProt P0DMS8)
Assay: Inhibitory concentration as antagonistic activity against cAMP generation inhibited by IB-MECA in CHO cell membranes transfected with human Adenosine A3 receptor
Type: functional, cell-based

Amino acid sequences for entries named in this document (tags omitted).
UniProt P0DMS8, whole entry: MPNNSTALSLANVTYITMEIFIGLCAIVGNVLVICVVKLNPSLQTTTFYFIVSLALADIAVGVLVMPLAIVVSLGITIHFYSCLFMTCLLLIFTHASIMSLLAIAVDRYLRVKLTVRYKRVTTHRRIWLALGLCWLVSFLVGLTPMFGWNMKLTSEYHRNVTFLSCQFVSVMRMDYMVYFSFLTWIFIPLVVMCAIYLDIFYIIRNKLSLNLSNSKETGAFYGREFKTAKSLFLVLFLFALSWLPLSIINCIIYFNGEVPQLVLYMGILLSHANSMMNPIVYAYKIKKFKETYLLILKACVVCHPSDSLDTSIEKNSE

- IC50: 4.5 nM
SMILES: CCCn1cc2c(nc(NC(=O)Nc3ccc(OC)cc3)n3nc(-c4ccco4)nc23)n1

Source: ChEMBL document CHEMBL1132457, “Pyrazolo[4,3-e]-1,2,4-triazolo[1,5-c]pyrimidine derivatives as highly potent and selective human A(3) adenosine receptor antagonists” (J Med Chem, 1999)
